The results in this text go back to PMC7179119, “A New Positron Emission Tomography Probe for Orexin Receptors Neuroimaging” (Molecules, 2020).

Sequences of proteins named here, by UniProt entry; tags and fusion partners are left off.
UniProt O43613, whole entry: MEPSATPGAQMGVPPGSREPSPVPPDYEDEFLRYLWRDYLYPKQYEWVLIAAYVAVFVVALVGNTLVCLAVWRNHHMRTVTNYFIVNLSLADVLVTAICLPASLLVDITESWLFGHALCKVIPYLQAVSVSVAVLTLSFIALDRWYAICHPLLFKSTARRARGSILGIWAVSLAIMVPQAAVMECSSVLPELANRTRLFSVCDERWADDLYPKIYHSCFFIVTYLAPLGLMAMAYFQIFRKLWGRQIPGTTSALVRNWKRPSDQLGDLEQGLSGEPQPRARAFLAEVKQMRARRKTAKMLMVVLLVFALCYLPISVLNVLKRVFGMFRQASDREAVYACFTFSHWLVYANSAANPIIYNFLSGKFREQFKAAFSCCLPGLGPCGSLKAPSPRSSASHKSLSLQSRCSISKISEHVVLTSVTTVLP

The assay deals with T1, human recombinant orexin OX1 receptors (Homo sapiens, UniProt O43613).
T1 construct: host or cells: CHO-S cells
The assay is described as follows: Human Orexin GPCR Binding (Agonist Radioligand) Assay, [125I] Orexin A competition. On the procedure: Radioligand competition binding assays were performed by Panlabs, Eurofins Pharma Discovery Services. Briefly, human recombinant orexin OX1 receptors expressed in CHO-S cells were used in modified HEPES buffer pH 7.4. […] Orexin A for 60 minutes at 25 °C. […] Orexin A specifically binding. Human recombinant OX2 receptors were used in modified HEPES buffer pH 7.4. […] Orexin A for 180 minutes at 25 °C. […] Orexin A specifically bound.

The IC50 is the concentration at which inhibition is half-maximal.

In the case of `Cc1ccc(-n2nccn2)c(C(=O)N2CCN(c3nc4cc(Cl)ccc4o3)CC[C@H]2C)c1` [Suvorexant, reference compound], the IC50 is 27 nM.
